Series [1] in a line: Intrinsic clearance, human.
The nature of series [2]: Intrinsic clearance, mouse.

What is called CLint scaled is the rate of metabolic loss divided by the concentration. Read a high CLint scaled as faster metabolism.

For the compound `Cc1cc(-c2cnc3cc(-c4ccc(C5COCCN5)cc4)ccn23)c2cc(F)ccc2n1` (stereo not drawn) [Compound 11], in series [1], the “Intrinsic Clearance Human” value was 134.14 mL/min/kg. In series [2], the CLint scaled was 47.4 mL/min/kg and the “Intrinsic Clearance Mouse” value is 99.99 mL/min/kg.

Consider `Cc1cc(-c2cnc3cc(-c4ccc(C5CNCCN5)cc4)ccn23)c2cc(F)ccc2n1` (stereo not drawn) [Compound 18], for which, in series [1], the “Intrinsic Clearance Human” value turned out to be 32.84 mL/min/kg.

Regarding `Cc1cc(-c2cnc3cc(-c4ccc(C5COCCN5)cc4)ccn23)c2ccccc2n1` (stereo not drawn) [Compound 21], the “Intrinsic Clearance Human” value in series [1] amounted to 138.78 mL/min/kg. The same compound returned a CLint scaled in series [2] of 97.8 mL/min/kg.

Regarding `Cc1cc(-c2cnc3cc(-c4ccc(C5COCCN5)cc4)ccn23)c2cc(F)cc(F)c2n1` (stereo not drawn) [Compound 22], the “Intrinsic Clearance Human” value in series [1] worked out at 138.78 mL/min/kg. Also, in series [2], the CLint scaled stood at 47.7 mL/min/kg and the “Intrinsic Clearance Mouse” value came to 97.13 mL/min/kg.

Source of the values: patent US10745400B2, “Inhibition of BMP signaling, compounds, compositions and uses thereof” (Vanderbilt University, priority 2018, dated 2020).
